Reference: PubChem BioAssay (NCI)
Some of these compounds have results that are not shown, active ones among them.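 Exposure lasted 48 hours, with cells grown in 96-well plates and compounds tested at five concentrations. GI50: concentration for 50% inhibition of growth.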

Experiments:
Assay in all cases: NCI anticancer screen, dose series, 48 h; in the data active means GI50 below about 0.43 µM; inactive means the rest
[1] = system: MDA-MB-231 breast
[2] = system: TK-10 renal
[3] = system: SN12C renal
[4] = system: HCT-15 colon
[5] = system: RPMI-8226 leukemia
[6] = system: OVCAR-8 ovarian
[7] = system: K-562 leukemia
[8] = system: NCI-H522 lung
[9] = system: NCI/ADR-RES ovarian
[10] = system: HL-60(TB) leukemia
[11] = system: SF-268 CNS
[12] = system: RXF 393 renal
[13] = system: OVCAR-5 ovarian
[14] = system: OVCAR-3 ovarian
[15] = system: EKVX NSCLC
[16] = system: NCI-H226 lung
[17] = system: UACC-257 melanoma
[18] = system: HT29 colon
[19] = system: ACHN renal
[20] = system: M14 melanoma
[21] = system: LOX IMVI melanoma
[22] = system: SF-295 CNS
[23] = system: HCC-2998 colon
[24] = system: DU-145 prostate
[25] = system: T-47D breast
[26] = system: A549 NSCLC
[27] = system: SF-539 CNS
[28] = system: MDA-N
[29] = system: SNB-75 CNS
[30] = system: HOP-62 NSCLC
[31] = system: SK-OV-3 ovarian
[32] = system: KM12 colon
[33] = system: HCT-116 colon
[34] = system: CCRF-CEM leukemia
[35] = system: MALME-3M melanoma
[36] = system: SW-620 colon
[37] = system: UO-31 renal
[38] = system: PC-3 prostate
[39] = system: SK-MEL-5 melanoma
[40] = system: SR leukemia
[41] = system: CAKI-1 renal
[42] = system: SK-MEL-28 melanoma
[43] = system: 786-0 renal
[44] = system: MCF7 breast
[45] = system: NCI-H23 lung
[46] = system: U251 CNS
[47] = system: SNB-19 CNS
[48] = system: UACC-62 melanoma
[49] = system: IGROV1 ovarian
[50] = system: COLO 205 colon

Measured: GI50

CN1CCC(OC(=O)C(O)(c2ccccc2)c2ccns2)CC1 (stereo not given)
inactive: [1] > 100 µM | [2] > 100 µM | [3] > 100 µM | [4] > 100 µM | [5] > 100 µM | [6] > 100 µM | [7] > 100 µM | [8] > 100 µM | [9] > 100 µM | [10] > 100 µM | [11] > 100 µM | [12] > 100 µM | [13] > 100 µM | [14] > 100 µM | [15] > 100 µM | [16] > 100 µM | [17] > 100 µM | [18] > 100 µM | [19] > 100 µM | [20] > 100 µM | [21] > 100 µM | [22] > 100 µM | [23] > 100 µM | [24] > 100 µM | [25] > 100 µM | [26] > 100 µM | [27] > 100 µM | [28] > 100 µM | [29] > 100 µM | [30] > 100 µM | [31] > 100 µM | [32] > 100 µM | [33] > 100 µM | [34] > 100 µM | [35] > 100 µM | [36] > 100 µM | [37] > 100 µM | [38] > 100 µM | [39] > 100 µM | [40] > 100 µM | [41] > 100 µM | [42] > 100 µM | [43] > 100 µM | [44] > 100 µM | [45] > 100 µM | [46] > 100 µM | [47] > 100 µM | [48] > 100 µM | [49] > 100 µM | [50] > 100 µM
